The target in the assay is T1, human LIF (source not stated) (human, UniProt P15018 23-202).
T1 construct: also called hLIF; recombinant human LIF protein
Nature of the assay: SPR (Biacore 2002), hLIF amine-coupled to chip, antibody as analyte, Langmuir 1:1 fit.

Protein sequences, listed by entry. Tags and fused reporters are not part of them. Residues count along the entry.
UniProt P15018, 23-202 limits assumed: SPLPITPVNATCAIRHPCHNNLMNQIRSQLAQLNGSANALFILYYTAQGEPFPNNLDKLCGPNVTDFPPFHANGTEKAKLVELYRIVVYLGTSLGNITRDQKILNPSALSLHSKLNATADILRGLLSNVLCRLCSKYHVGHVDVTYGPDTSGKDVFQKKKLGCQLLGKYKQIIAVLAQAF

This is an account of results in patent publication US20230042095A1 (AstraZeneca / MedImmune, published 2023).

B1: H1L3 (humanized 5D8 variant) (antibody, V domains shown)
VH: EVQLVESGGGLVKPGGSLKLSCAASGFTFSHAWMHWVRQAPGKGLEWVAQIKAKSDDYATYYAESVKGRFTISRDDSKNTLYLQMNSLKTEDTAVYYCTCWEWDLDFWGQGTLVTVSS
VL: DIVMTQTPLSLSVTPGQPASISCRSSQSLLDSDGHTYLNWLLQKPGQPPQLLIYSVSNLESGVPNRFSGSGSGTDFTLKISRVEAEDVGLYYCMQATHAPPYTFGGGTKVEIKR
notes: also called D (H1L3)
Take B1: binding was characterised by a dissociation constant (Kd) of 0.054 nM. This counts as picomolar.

B2: H2L3 (humanized 5D8 variant) (antibody, V domains shown)
VH: QVQLQESGGGLVKPGGSLRLSCAASGFTFSHAWMHWVRQAPGKGLEWVGQIKAKSDDYATYYAESVKGRFTISRDDSKNTLYLQMNSLKTEDTAVYYCTCWEWDLDFWGQGTMVTVSS
VL: DIVMTQTPLSLSVTPGQPASISCRSSQSLLDSDGHTYLNWLLQKPGQPPQLLIYSVSNLESGVPNRFSGSGSGTDFTLKISRVEAEDVGLYYCMQATHAPPYTFGGGTKVEIKR
notes: also called H (H2L3)
B2 came in with a Kd of 0.136 nM.
